The test addresses BRD4 BD2 (Homo sapiens (Human), UniProt O60885). As to the kind of experiment: FP competitive binding assay using Cpd. No. 350 as the probe.

Take `COc1cc2c(cc1-c1c(C)noc1C)[nH]c1nc(C)nc(-c3cc(C(=O)NC4CCN(C5COC5)CC4)cc(C(C)(C)C)c3)c12` [Cpd. No. 322]: the Ki came to 7.4 nM.

(Values after patent publication US9675697B2 (THE REGENTS OF THE UNIVERSITY OF MICHIGAN, priority 2013, dated 2017).)
